Bioassay records as filed in PubChem BioAssay.
Only some compounds are listed: those with a hit (about 16% of all), similar ones and a draw of the others.
TDP1 block – TDP1 (human) enzyme inhibition. Q9NUW8. Potency, µM (highest dose often 130 µM), without a hit: at the top dose activity change, negative = inhibition, most hits filed as inhibitors. AID 485290. actives 0.28% (n = 350,000). recombinant TDP1, AlphaScreen DNA substrate cleavage; note: potency is the fitted concentration of half-maximal effect; % is set by controls: 0 for no effect and ±100 for the full control effect; nearly all actives have a fitted effect of over 40% in size
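Here, a 5' biotin and 3' phosphotyrosine-FITC DNA oligonucleotide reports Tdp1 activity: intact substrate bridges AlphaScreen beads, while cleavage leaves a 3' phosphate and drops signal. All incubations at room temperature.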
TDP1 cell CPT – DT40-hTDP1 cell growth loss with CPT; chicken DT40 Tdp1-/-;hTDP1 cells + 20 nM CPT, ATP luminescence, 48 h; Potency, µM (doses to about 46.2 µM), inactives show at the highest dose activity change, negative = growth inhibition, most hits filed as inhibitors; actives 12% (n = 420,000); note: potency is the fitted concentration of half-maximal effect; % is set by controls: 0 for no effect and ±100 for the full control effect; nearly all actives have a fitted effect of over 55% in size
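Chicken DT40 Tdp1-/- cells complemented with human TDP1, 400 cells/well, exposed to compounds plus 20 nM camptothecin for at least 48 h at 37 C; viability read as ATP content by CellTiter-Glo luminescence.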
miR-21 reporter – raises the signal of a miR-21 reporter | AID 2288 | 340,000 tested, under 10 active | Potency, µM (series often up to 38.3 µM), without a hit: at the highest dose reporter change, positive = more light | HeLa miR-21 FLuc reporter, luciferase, 48 h; active = well fitted rising curve with a large enough effect; inconclusive = small, poorly fitted or top-dose-only effect; inactive = no such curve, though single readings can be large or run the other way;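 further: % of control where 0% means no effect; miR-21 action dims this reporter so a rising signal means less miR-21 action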
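Luminescence from a firefly luciferase reporter carrying a miR-21 binding site downstream, stably expressed under a CMV promoter in HeLa cells that make miR-21 endogenously, reports miRNA modulation after 48 h compound exposure up to approximately 40uM final.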
uPA surface inh – inhibitors of cell surface uPA generation; Potency, µM (series often up to 38.3 µM), for the others: at the top dose activity change, negative = inhibition, most hits filed as inhibitors; actives 0.31% (n = 330,000); cell surface uPA generation assay, qHTS; AID 540303; active = well fitted inhibition curve with a large enough effect; inconclusive = small, poorly fitted or top-dose-only effect; inactive = no such curve, though single readings can be large or run the other way; tested in mouse RAW 264.7 cells; note: potency is the fitted concentration of half-maximal effect; % is set by controls: 0 for no effect and ±100 for the full control effect; nearly all actives have a fitted effect of over 55% in size
TDP1 cell noCPT – qHTS for Inhibitors of human tyrosyl-DNA phosphodiesterase 1 (TDP1): qHTS in cells in absence of CPT; DT40 Tdp1-/- hTDP1 cells, no CPT, ATP luminescence, 48 h; Potency, µM (doses to about 46.2 µM), inactives show at the highest dose activity change, negative = growth inhibition, usual class: inhibitors; actives 15% (n = 420,000); AID 686978, 2013; note: potency is the fitted concentration of half-maximal effect; % is set by controls: 0 for no effect and ±100 for the full control effect; nearly all actives have a fitted effect of over 55% in size
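Stably hTDP1-transfected Tdp1-null chicken DT40 cells were treated with library compounds minus camptothecin and grown for at least 48 hr at 37 °C, after which cellular ATP was quantified by luminescence.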
Starred values were filed as active, the others as inactive; ? = inconclusive; nt = not tested or not shown; ! = repeats disagree. Unless noted, calls come from the whole dose curve; as a rule, active = well fitted curve in the direction sought with a large enough effect; inconclusive = small, poorly fitted or top-dose-only effect, or another doubt; inactive = no such curve, though single readings can be large; an effect the other way counts as inactive or inconclusive.

SMILES | TDP1 block | TDP1 cell CPT | miR-21 reporter | uPA surface inh | TDP1 cell noCPT
Cc1ccc(NC(=O)C2CCCN(S(=O)(=O)c3c(C)noc3C)C2)c(Br)c1 (stereo not given) | -2% | 21µM* | -5% | -5% | ?
Cc1cccc(N2CCN(C(=O)C3CCCN(S(=O)(=O)c4c(C)noc4C)C3)CC2)c1C (stereo not given) | nt | 23µM* | nt | 0% | 23µM*
Cc1ccc(NC(=O)C2CCCN(S(=O)(=O)c3c(C)noc3C)C2)nc1 (stereo not given) | 0% | -14% | 0% | -1% | -28%
CSc1ccc(C(=O)C2CCCN(S(=O)(=O)c3c(C)noc3C)C2)cc1 (stereo not given) | 6% | ? | -5% | -1% | ?
Cc1cc(C)c2c(CC(=O)Nc3cc(C(F)(F)F)ccc3Cl)coc2c1 | 2% | -19% | 2% | nt | ?
COc1ccc(CC(=O)N/N=C(\C)c2cccnc2)cc1 | 2% | -9% | 1% | 1% | 22%
CN=c1scc(-c2ccc(OC)cc2)n1/N=C(\C)c1cccnc1 | 10% | ? | -9% | nt | 18µM*
O=S1(=O)CCC(NC(=S)NC2CCS(=O)(=O)C2)C1 (stereo not given) | -2% | 35% | -6% | -3% | -7%
CCOC(=O)c1ccc(NC(=S)N2CCSC2c2ccc(OC)cc2)cc1 (stereo not given) | 6% | -25% | -12% | 7% | ?
CCOC(=O)c1ccc(NC(=S)N2CCSC2c2ccc(Cl)cc2)cc1 (stereo not given) | 8% | ? | -7% | 9% | 16µM*
Cc1ccc2c(c1)N(CCC(=O)NCCCN1CCCC1)C(=O)CO2 | -10% | 10% | 0% | 2% | -8%
O=C(NCc1cccnc1)c1cccn1-c1ncc(C(F)(F)F)cc1Cl | 0% | ? | 1% | 0% | ?
c1ccc(CN(Cc2cccs2)C(c2cccs2)c2nnnn2C2CCCC2)cc1 (stereo not given) | 7% | ? | -3% | -3% | 18µM*
CC(C)(C)n1nnnc1C(c1ccncc1)N(Cc1ccccc1)Cc1ccco1 (stereo not given) | 12% | ? | 0% | -3% | 23µM*
CC(C)(C)n1nnnc1C(c1cccs1)N(Cc1cccnc1)Cc1ccco1 (stereo not given) | 4% | ? | 9% | 5% | ?
CC(C)(C)n1nnnc1C(c1cccs1)N(Cc1ccccc1)Cc1ccco1 (stereo not given) | 1% | ? | 28% | -11% | 16µM*
CCN(Cc1ccccc1)C(c1ccc(Cl)cc1)c1nnnn1C(C)(C)C (stereo not given) | -3% | 26µM* | -5% | 6% | ?
CC12CCC(C/C1=N\OC(=O)c1ccc(F)cc1)C2(C)C (stereo not given) | 0% | -22% | 0% | 3% | -20%
CCOC(=O)C1=C(C)OC(=CC=Cc2ccccc2)C1=O | nt | -4% | nt | nt | ?
COc1cc(CNCCc2ccccc2)cc(Cl)c1OCc1ccccc1 | 3% | ? | ? | 4% | ?
CCOc1ccccc1N1CCN(CC(O)COc2ccc3c(C)cc(=O)oc3c2)CC1 (stereo not given) | -3% | -5% | -4% | -5% | -23%
Cc1cc2cc(C(c3nnnn3C3CCCC3)N(Cc3cccnc3)Cc3ccco3)c(=O)[nH]c2cc1C (stereo not given) | 3% | ? | 0% | nt | ?
Cc1ccc2cc(C(c3nnnn3C3CCCC3)N(Cc3ccccc3)Cc3ccco3)c(=O)[nH]c2c1 (stereo not given) | 6% | 21µM* | 1% | -1% | ?
CC(=O)c1ccc(N2CCN(C(=O)Nc3ccc(Cl)cc3)CC2)cc1 | 8% | ? | 2% | nt | 10µM*

Next section; it opens with the 6 that closed the last part.
SMILES | TDP1 block | TDP1 cell CPT | miR-21 reporter | uPA surface inh | TDP1 cell noCPT
CCOC(=O)C1=C(C)OC(=CC=Cc2ccccc2)C1=O | nt | -4% | nt | nt | ?
COc1cc(CNCCc2ccccc2)cc(Cl)c1OCc1ccccc1 | 3% | ? | ? | 4% | ?
CCOc1ccccc1N1CCN(CC(O)COc2ccc3c(C)cc(=O)oc3c2)CC1 (stereo not given) | -3% | -5% | -4% | -5% | -23%
Cc1cc2cc(C(c3nnnn3C3CCCC3)N(Cc3cccnc3)Cc3ccco3)c(=O)[nH]c2cc1C (stereo not given) | 3% | ? | 0% | nt | ?
Cc1ccc2cc(C(c3nnnn3C3CCCC3)N(Cc3ccccc3)Cc3ccco3)c(=O)[nH]c2c1 (stereo not given) | 6% | 21µM* | 1% | -1% | ?
CC(=O)c1ccc(N2CCN(C(=O)Nc3ccc(Cl)cc3)CC2)cc1 | 8% | ? | 2% | nt | 10µM*
NS(=O)(=O)c1ccc(NC(=S)N2CCN(c3cccc(Cl)c3)CC2)cc1 | 3% | ? | 16% | -5% | 7.3µM*
NS(=O)(=O)c1ccc(NC(=S)N2CCN(c3ccccc3Cl)CC2)cc1 | 0% | ? | 7% | 1% | ?
CCOC(=O)c1ccc(NC(=O)N2CCN(c3cccc(OC)c3)CC2)cc1 | 0% | ? | 3% | -5% | 18µM*
CCOC(=O)c1ccc(NC(=O)N2CCN(c3ccccn3)CC2)cc1 | 2% | 0% | 9% | 3% | -25%
CC(=O)c1ccc(NC(=O)N2CCN(c3cccc(Cl)c3)CC2)cc1 | -1% | 12µM* | -6% | 1% | 12µM*
COc1ccc(S(=O)(=O)N2CCC3(CC2)CC(=O)c2ccccc2O3)cc1OC | -10% | -1% | nt | -7% | -10%
Cc1nc(N2CCCC2)ncc1C(=O)NCc1ccc(F)cc1 | 1% | 1% | -8% | nt | 3%
Cc1sc(NC(=O)c2ccccc2)c(C(c2ccccn2)N2CCN(CCO)CC2)c1C (stereo not given) | -3% | 10µM* | -10% | -3% | 9.2µM*
CC(=O)Nc1ccc(NC(=O)CSc2nc(=O)n(Cc3ccncc3)c3c2CCC3)cc1 | nt | 14% | nt | -1% | -11%
Cc1noc2ncnc(N3CCCC3)c12 | -3% | -21% | 0% | 11% | 1%
Cc1noc2ncnc(Sc3ccc(Br)cc3)c12 | -8% | 2.6µM* | 0% | nt | 9.2µM*
CC1CCN(CC2C(=O)O[C@@H]3C[C@@]4(C)CCC[C@H](C)C4=C[C@H]23)CC(C)(C)C1 (stereo not given in full) | nt | ? | 6% | -10% | 18µM*
C=C1CCC[C@]2(C)C[C@H]3OC(=O)C(CN4CC(C)OC(C)C4)[C@H]3C[C@@H]12 (stereo not given in full) | nt | ? | 3% | ? | ?
O=Cc1ccc(OC(=O)C2CC(=O)N(c3ccc(F)cc3)C2)cc1 (stereo not given) | 2% | -5% | 3% | nt | 3%
CC(C)N(Cc1ccccc1)S(=O)(=O)N(C)C | 2% | -2% | -10% | -1% | -19%
C=C[C@H](CC(C)C)N(Cc1ccccc1)S(=O)(=O)N(Cc1ccc(OC)cc1)[C@H](C=C)CC(C)C | 0% | ? | nt | 7% | 13µM*
CC(C)C[C@H](CO)N(Cc1ccccc1)S(=O)(=O)N(Cc1ccccc1)[C@@H](CO)CC(C)C | 0% | 16µM* | nt | ? | 12µM*!
C=CS(=O)(=O)N(Cc1ccccc1Br)[C@H](CO)Cc1ccccc1 | nt | 7.9µM* | nt | ? | 7.1µM*
C=CS(=O)(=O)N(Cc1ccccc1)[C@H](CO)CC(C)C | nt | 10µM* | nt | -9% | 11µM*
